This is an account of results in ChEMBL document CHEMBL1250483, “Three-dimensional quantitative structure-activity relationship CoMSIA/CoMFA and LeapFrog studies on novel series of bicyclo [4.1.0] heptanes derivatives as melanin-concentrating hormone receptor R1 antagonists” (Eur J Med Chem, 2010).

Amino acid sequences for entries named in this document (tags omitted). A change or cut given only in a name is not applied to a line headed by its entry.
UniProt Q99705: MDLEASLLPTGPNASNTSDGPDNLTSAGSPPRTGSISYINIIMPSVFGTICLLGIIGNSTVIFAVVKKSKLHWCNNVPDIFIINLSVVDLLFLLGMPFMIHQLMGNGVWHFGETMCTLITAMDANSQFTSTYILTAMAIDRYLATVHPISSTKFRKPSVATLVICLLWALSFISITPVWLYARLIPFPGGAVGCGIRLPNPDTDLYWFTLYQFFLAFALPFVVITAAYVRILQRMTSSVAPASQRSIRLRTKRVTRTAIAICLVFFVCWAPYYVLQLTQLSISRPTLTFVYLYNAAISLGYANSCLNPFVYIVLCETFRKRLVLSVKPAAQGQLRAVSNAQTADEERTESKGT

The test addresses Melanin-concentrating hormone receptor 1 (Homo sapiens, UniProt Q99705). Nature of the test: Antagonist activity at MCH1 receptor. It counts as functional.
What is called Ki is a dissociation constant, usually derived from enzyme kinetics or from competition with a known ligand. Read a low Ki as a stronger hold on the target. The compound `N#Cc1cccc([C@]23CCC(N(CC4CCN(C5CCOCC5)CC4)C(=O)Nc4ccc(F)c(Cl)c4)CC2C3)c1` (stereo partly drawn) showed a Ki of 8.71 nM.
In turn, `N#Cc1cccc([C@]23CCC(N(CCN4CCC[C@H]4CO)C(=O)Nc4ccc(F)c(Cl)c4)CC2C3)c1` (stereo partly drawn) had a Ki of 15 nM.
For the compound `COC(=O)c1cccc([C@]23CCC(N(CCN(C(C)C)C(C)C)C(=O)Nc4ccc(F)c(F)c4)CC2C3)c1` (stereo partly drawn), the Ki is 34 nM.
